Patent publication US20050010126A1, “Assessment of concentration of inhalational compounds in the brain” (priority 2001, published 2005)

Experiment: assessment of mixed venous and brain anesthetic concentration from inspired and expired concentrations
Conditions: desflurane; inspired 6.2%, expired 5.4%, M 0.2
Text: At the stage of anesthesia (after the FRC is filled with the gas), the equation: Ci′−Ce′=M (Ci′−Cb′) can be used to calculate the compound concentration in the mixed venous blood (Cb′), in which Ci′ and Cb′ are the inspired compound concentration and the expired compound concentration, respectively: Cb′=[Ci′(M−1)+Ce′]/M.
As discussed above, Cb=(A+J)/2 and (A+J)/2=(Ce′+2Cb′)/3 or (Ce′+3Cb′)/4, the compound concentration in the brain (Cb) can be expressed as: Cb=(Ce′+2Cb′)/3 or (Ce+3Cb′)/4.
Thus, with measurements of the expired compound concentration (Ce′) and the mixed venous compound concentration (Cb′), the compound concentration in the brain (Cb) can be readily obtained. Below are two examples of how to assess brain anesthetic concentrations by this method.
A tube is connected to the circle system of an anesthesia machine consisting of gas flowmeters, a compound vaporizer, supply of oxygen, air and nitrous oxide gas, and a ventilator (e.g., Detex-Ohmeda, Finland, or Drager, Germany). The gas is then delivered to the patient by the anesthesia machine. […] Near the connection between the circle system and the tube, a side arm sampling site is linked to a gas monitoring equipment (e.g., an infra-red monitor or a mass spectrometer). Typically, a sampling speed is 200 mL/min. […]

Compound: FC(F)OC(F)C(F)(F)F (stereo not shown) [desflurane]
- concentration in the mixed venous blood (Cb'): 2.2%
